Laboratory results reported in patent US9303023B2, “Pyrazole and imidazole derivatives useful as orexin antagonists” (ACTELION PHARMACEUTICALS LTD., priority 2011, dated 2016).

Sequences of proteins named here, by UniProt entry; tags and fusion partners are left off.
UniProt O43614, whole entry: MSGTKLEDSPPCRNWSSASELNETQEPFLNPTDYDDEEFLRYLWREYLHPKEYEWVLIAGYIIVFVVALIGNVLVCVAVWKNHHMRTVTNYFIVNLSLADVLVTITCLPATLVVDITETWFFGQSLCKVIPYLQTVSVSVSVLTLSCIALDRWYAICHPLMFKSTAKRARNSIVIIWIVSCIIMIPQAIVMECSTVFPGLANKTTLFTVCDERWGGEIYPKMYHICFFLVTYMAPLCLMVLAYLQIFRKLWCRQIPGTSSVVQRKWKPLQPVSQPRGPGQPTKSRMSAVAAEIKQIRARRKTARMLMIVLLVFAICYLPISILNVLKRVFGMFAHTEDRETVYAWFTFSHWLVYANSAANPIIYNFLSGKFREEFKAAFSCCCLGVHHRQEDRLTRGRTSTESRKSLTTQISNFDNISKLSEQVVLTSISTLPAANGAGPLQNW

Molecular target: human orexin-2 receptor (Homo sapiens (Human), UniProt O43614)
Assay: In vitro intracellular calcium measurements (FLIPR), antagonism of orexin-A response, OX2
Format: cell-based
Conditions: CHO cells expressing human orexin-2 receptor; 3 nM orexin-A; compound incubation time 120 min

Q: Cc1cccc(-c2ocnc2C(=O)Nc2cnn(CCN3CCc4ccccc43)c2)c1 [Example 16, 5-m-Tolyl-oxazole-4-carboxylic acid {1-[2-(2,3-dihydro-indol-1-yl)-ethyl]-1H-pyrazol-4-yl}-amide] was tested. Which IC50 did it give?
A: The IC50 was 368 nM.
